Experimental findings from patent US20030237104A1 (priority 2002, published 2003) are described below.

For one data set, the system named is CB6F1-HRAS2 mice. Kind of data set: Rapid carcinogenicity tests with CB6F1-HRAS2 (Tg) mice.
Another data set concerns non-Tg mice (CB6F1). Kind of data set: Rapid carcinogenicity tests, control non-Tg littermates. The note with it: for forestomach papillomas incidence: single oral 2.5 mg/mouse, 13 weeks.

For the molecule `CN(N=O)C(=N)N[N+](=O)[O-]`, the forestomach papillomas incidence was found to be 100% in the data set with CB6F1-HRAS2 mice (male and female, single oral 2.5 mg/mouse, 13 weeks); 11% with non-Tg mice (CB6F1) (female); 0% with non-Tg mice (CB6F1) (male). In addition, in the data set with CB6F1-HRAS2 mice (single oral 2.5 mg/mouse, 26 weeks, Tg vs non-Tg), the squamous cell carcinomas result is given as “observed only in MNNG-treated CB6F1-HRAS2 mice”.
For the molecule N,N-Diethylnitrosamine, the liver tumors result with CB6F1-HRAS2 mice (CB6F1-HRAS2 and control non-Tg mice) is “neither CB6F1-HRAS2 mice nor control non-Tg mice treated with these compounds developed liver tumors”. In the data set on CB6F1-HRAS2 mice (Tg vs non-Tg), the “incidence and multiplicity of lung adenoma” value is “not significantly higher”. The “forestomach squamous cell carcinomas and lung adenocarcinomas” value was “only in CB6F1-HRAS2 mice” with CB6F1-HRAS2 mice (single i.p. 90 mg/kg, 3 months) and “never observed” with non-Tg mice (CB6F1) (single i.p. 90 mg/kg, 6-month observation period). Moreover, the “incidence of both types of malignant tumors” value with CB6F1-HRAS2 mice (single i.p. 90 mg/kg, six months) was “increased substantially”. Besides, the “incidence of (lung) adenoma” value in the data set with CB6F1-HRAS2 mice (single i.p. 90 mg/kg, six months, Tg vs non-Tg) was “significantly higher in non-Tg mice than in CB6F1-HRAS2 mice”.
